pIC50: −log10 of the molar value.
Tests used:
human PAC1 receptor = biological target: T1, human PAC1 receptor (Homo sapiens, UniProt P41586); assay: LANCE Ultra cAMP accumulation antagonist assay in SHSY-5Y cells; format: cell-based;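 note: inhibition of cAMP accumulation evoked by PAC1 agonist at its EC80 in SHSY-5Y cells endogenously expressing receptor, 30 min preincubation then 15 min agonist, TR-FRET readout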
T1 construct: SHSY-5Y (human neuroblastoma cell line) and RG-2 (rat glioma cell line) cells endogenously express human and rat PAC1 receptors, respectively; endogenous in cells; host or cells: SHSY-5Y human neuroblastoma cells
T1 sequence (P41586 21-468): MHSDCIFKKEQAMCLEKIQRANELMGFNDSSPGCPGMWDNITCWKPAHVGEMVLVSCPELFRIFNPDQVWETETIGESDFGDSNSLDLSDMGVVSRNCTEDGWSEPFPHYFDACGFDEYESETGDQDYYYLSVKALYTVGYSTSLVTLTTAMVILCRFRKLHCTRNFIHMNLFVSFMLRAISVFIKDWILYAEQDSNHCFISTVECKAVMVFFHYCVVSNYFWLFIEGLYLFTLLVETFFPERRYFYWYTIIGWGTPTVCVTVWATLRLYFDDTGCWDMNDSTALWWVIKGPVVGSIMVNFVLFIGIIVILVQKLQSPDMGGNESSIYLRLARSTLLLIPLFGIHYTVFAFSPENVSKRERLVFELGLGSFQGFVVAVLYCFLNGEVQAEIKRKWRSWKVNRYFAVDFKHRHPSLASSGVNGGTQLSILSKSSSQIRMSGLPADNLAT

rat PAC1 receptor = biological target: T2, rat PAC1 receptor (Rattus norvegicus, UniProt P32215); assay: LANCE Ultra cAMP accumulation antagonist assay in RG-2 cells; format: cell-based;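 note: RG-2 rat glioma cells endogenously expressing PAC1, test peptide preincubated 30 min, then PAC1 agonist added at its EC80 for 15 min, cAMP accumulation read by LANCE Ultra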
T2 construct: SHSY-5Y (human neuroblastoma cell line) and RG-2 (rat glioma cell line) cells endogenously express human and rat PAC1 receptors, respectively; endogenous in cells; host or cells: RG-2 rat glioma cells
T2 sequence (P32215 20-523): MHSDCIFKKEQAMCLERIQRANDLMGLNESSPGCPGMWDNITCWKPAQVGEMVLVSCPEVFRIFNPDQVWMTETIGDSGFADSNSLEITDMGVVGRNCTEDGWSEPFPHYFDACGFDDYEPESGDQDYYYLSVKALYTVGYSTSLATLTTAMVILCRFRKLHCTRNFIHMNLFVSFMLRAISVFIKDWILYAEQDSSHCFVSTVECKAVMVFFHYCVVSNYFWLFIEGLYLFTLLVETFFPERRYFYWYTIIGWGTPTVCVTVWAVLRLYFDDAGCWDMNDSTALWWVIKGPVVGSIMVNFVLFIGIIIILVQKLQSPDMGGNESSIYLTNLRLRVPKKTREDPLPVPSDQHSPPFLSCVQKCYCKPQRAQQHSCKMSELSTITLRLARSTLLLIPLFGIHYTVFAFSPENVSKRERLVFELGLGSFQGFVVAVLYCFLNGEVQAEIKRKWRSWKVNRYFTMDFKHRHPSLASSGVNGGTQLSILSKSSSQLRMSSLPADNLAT

Row | Structure (SMILES) | pIC50 (human PAC1 receptor) | pIC50 (rat PAC1 receptor)
1 | CC[C@H](C)[C@H](NC(=O)[C@H](C)NC(=O)[C@H](CCCCN)NC(=O)[C@H](CCCNC(=N)N)NC(=O)[C@H](Cc1ccccc1)NC(=O)[C@H](CCC(N)=O)NC(=O)[C@@H]1CSSC[C@H](N)C(=O)N[C@@H](CC(=O)O)C(=O)N[C@@H](C)C(=O)N[C@@H]([C@@H](C)O)C(=O)N1)C(=O)N[C@@H](CC(=O)O)C(=O)N[C@@H](CC(=O)O)C(=O)N[C@H]1CSSC[C@@H](C(=O)N[C@@H](CCSC)C(=O)N[C@@H](CCCCN)C(=O)N[C@@H](CCC(N)=O)C(=O)N[C@@H](CCCCN)C(=O)N[C@@H](CCCCN)C(=O)N[C@@H](CCCCN)C(=O)N[C@@H](CCC(=O)O)C(=O)N[C@@H](Cc2ccccc2)C(=O)N[C@@H](CCCCN)C(N)=O)NC(=O)[C@H](CCC(=O)O)NC(=O)[C@H](CCCCN)NC(=O)[C@H](Cc2ccccc2)NC(=O)[C@H](C(C)C)NC(=O)[C@H](CO)NC(=O)[C@H](CC(N)=O)NC(=O)CNC(=O)[C@@H]2CCCN2C(=O)[C@H](C(C)C)NC(=O)[C@H](CC(N)=O)NC(=O)[C@H](CO)NC(=O)C(C)(C)NC(=O)[C@H](Cc2c[nH]cn2)NC(=O)[C@H](C)NC(=O)[C@H](CCC(N)=O)NC(=O)[C@H](CCCCN)NC(=O)[C@H](CCC(N)=O)NC1=O [compound 289] | 7.00 to 9.00 | 7.00 to 9.00
2 | CC[C@H](C)[C@H](NC(=O)[C@H](C)NC(=O)[C@H](CCCCN)NC(=O)[C@H](CCCNC(=N)N)NC(=O)[C@H](Cc1ccccc1)NC(=O)[C@H](CCC(N)=O)NC(=O)[C@@H]1CSSC[C@H](N)C(=O)N[C@@H](CC(=O)O)C(=O)N[C@@H](C)C(=O)N[C@@H]([C@@H](C)O)C(=O)N1)C(=O)N[C@@H](CC(=O)O)C(=O)N[C@@H](CC(=O)O)C(=O)N[C@H]1CSSC[C@@H](C(=O)N[C@@H](CCSC)C(=O)N[C@@H](CCCCN)C(=O)N[C@@H](CCC(N)=O)C(=O)N[C@@H](CCCCN)C(=O)N[C@@H](CCCCN)C(=O)N[C@@H](CCCCN)C(=O)N[C@@H](CCC(=O)O)C(=O)N[C@@H](Cc2ccccc2)C(=O)N[C@@H](CCCCN)C(=O)N[C@@H](C)C(=O)NCC(N)=O)NC(=O)C(C)(C)NC(=O)[C@H](CCCCN)NC(=O)[C@H](Cc2ccccc2)NC(=O)[C@H](C(C)C)NC(=O)[C@H](CO)NC(=O)CNC(=O)[C@@H]2CCCN2C(=O)[C@H](C(C)C)NC(=O)[C@H](CC(N)=O)NC(=O)[C@H](CO)NC(=O)[C@H](Cc2c[nH]cn2)NC(=O)[C@H](Cc2c[nH]cn2)NC(=O)[C@H](C)NC(=O)[C@H](CCC(N)=O)NC(=O)[C@H](CCCNC(=N)N)NC(=O)[C@H](CC(=O)O)NC1=O [compound 229] | 9.00 to 11.00 | 9.00 to 11.00
3 | CCCC[C@H](NC(=O)[C@@H]1CSSC[C@H](NC(=O)[C@H](CC(=O)O)NC(=O)[C@H](CC(=O)O)NC(=O)[C@@H](NC(=O)[C@H](C)NC(=O)[C@H](CCCCN)NC(=O)[C@H](CCCNC(=N)N)NC(=O)[C@H](Cc2ccccc2)NC(=O)[C@H](CCC(N)=O)NC(=O)[C@@H]2CSSC[C@H](N)C(=O)N[C@@H](CC(=O)O)C(=O)N[C@@H](C)C(=O)N[C@@H]([C@@H](C)O)C(=O)N2)[C@@H](C)CC)C(=O)N[C@@H](CCC(N)=O)C(=O)N[C@@H](CCCCN)C(=O)N[C@@H](CCC(N)=O)C(=O)N[C@@H](C)C(=O)N[C@@H](Cc2c[nH]cn2)C(=O)N[C@@H](Cc2c[nH]cn2)C(=O)N[C@@H](CO)C(=O)N[C@@H](CC(N)=O)C(=O)N[C@@H](C(C)C)C(=O)N2CCC[C@H]2C(=O)NCC(=O)N[C@@H](CO)C(=O)N[C@@H](C(C)C)C(=O)N[C@@H](Cc2ccccc2)C(=O)N[C@@H](CCCCN)C(=O)NC(C)(C)C(=O)N1)C(=O)N[C@@H](CCCCN)C(=O)N[C@@H](CCC(N)=O)C(=O)N[C@@H](CCCCN)C(=O)N[C@@H](CCCCN)C(=O)N[C@@H](CCCCN)C(=O)N[C@@H](CCC(=O)O)C(=O)N[C@@H](Cc1ccccc1)C(=O)N[C@@H](CCCCN)C(=O)N[C@@H](C)C(=O)NCC(N)=O [compound 263] | 7.00 to 9.00 | 9.00 to 11.00
4 | CSCC[C@H](NC(=O)[C@H](CS)NC(=O)C(C)(C)NC(=O)[C@H](CCCCN)NC(=O)[C@@H](N)Cc1ccccc1)C(=O)N[C@@H](CCCCN)C(=O)N[C@@H](CCC(N)=O)C(=O)N[C@@H](CCCCN)C(=O)N[C@@H](CCCCN)C(=O)N[C@@H](CCCCN)C(=O)N[C@@H](CCC(=O)O)C(=O)N[C@@H](Cc1ccccc1)C(=O)N[C@@H](CCCCN)C(=O)N[C@@H](C)C(=O)NCC(N)=O [compound 232] | < 7.00 | 7.00 to 9.00
5 | CC[C@H](C)[C@H](NC(=O)[C@H](C)NC(=O)[C@H](CCCCN)NC(=O)[C@H](CCCNC(=N)N)NC(=O)[C@H](Cc1ccccc1)NC(=O)[C@H](CCC(N)=O)NC(=O)[C@@H]1CSSC[C@H](N)C(=O)N[C@@H](CC(=O)O)C(=O)N[C@@H](C)C(=O)N[C@@H]([C@@H](C)O)C(=O)N1)C(=O)N[C@@H](CC(=O)O)C(=O)N[C@@H](CCC(=O)O)C(=O)N[C@H]1CSSC[C@@H](C(=O)N[C@@H](CCSC)C(=O)N[C@@H](CCCCN)C(=O)N[C@@H](CCC(N)=O)C(=O)N[C@@H](CCCCN)C(=O)N[C@@H](CCCCN)C(=O)N[C@@H](CCCCN)C(=O)N[C@@H](CCC(=O)O)C(=O)N[C@@H](Cc2ccccc2)C(=O)N[C@@H](CCCCN)C(=O)N[C@@H](C)C(=O)NCC(N)=O)NC(=O)C(C)(C)NC(=O)[C@H](CCCCN)NC(=O)[C@H](Cc2ccccc2)NC(=O)[C@H](C(C)C)NC(=O)[C@H](CO)NC(=O)CNC(=O)[C@@H]2CCCN2C(=O)[C@H](C(C)C)NC(=O)[C@H](CC(N)=O)NC(=O)[C@H](CO)NC(=O)[C@H](Cc2c[nH]cn2)NC(=O)[C@H](Cc2c[nH]cn2)NC(=O)[C@H](C)NC(=O)[C@H](CCC(N)=O)NC(=O)[C@H](CCCCN)NC(=O)[C@H](CCC(N)=O)NC1=O [compound 215] | 7.00 to 9.00 | 9.00 to 11.00
6 | CC[C@H](C)[C@H](NC(=O)[C@H](C)NC(=O)[C@H](CCCCN)NC(=O)[C@H](CCCNC(=N)N)NC(=O)[C@H](Cc1ccccc1)NC(=O)[C@H](CCC(N)=O)NC(=O)[C@@H]1CSSC[C@H](N)C(=O)N[C@@H](CC(=O)O)C(=O)N[C@@H](C)C(=O)N[C@@H]([C@@H](C)O)C(=O)N1)C(=O)N[C@@H](CC(=O)O)C(=O)N[C@@H](CC(=O)O)C(=O)N[C@H]1CSSC[C@@H](C(=O)N[C@@H](CCSC)C(=O)N[C@@H](CCCCN)C(=O)N[C@@H](CCC(N)=O)C(=O)N[C@@H](CCCCN)C(=O)N[C@@H](CCCCN)C(=O)N[C@@H](CCCCN)C(=O)N[C@@H](CCC(=O)O)C(=O)N[C@@H](Cc2ccccc2)C(=O)N[C@@H](CCCCN)C(=O)N[C@@H](C)C(=O)NCC(N)=O)NC(=O)C(C)(C)NC(=O)[C@H](CCCCN)NC(=O)[C@H](Cc2ccccc2)NC(=O)[C@H](C(C)C)NC(=O)[C@H](C)NC(=O)[C@H](C)NC(=O)[C@@H]2CCCN2C(=O)CNC(=O)[C@H](CC(N)=O)NC(=O)[C@H](CO)NC(=O)[C@H](Cc2c[nH]cn2)NC(=O)[C@H](Cc2c[nH]cn2)NC(=O)[C@H](C)NC(=O)[C@H](CCC(N)=O)NC(=O)[C@H](CCCCN)NC(=O)[C@H](CCC(N)=O)NC1=O [compound 227] | 9.00 to 11.00 | 9.00 to 11.00
7 | CCCC[C@H](NC(=O)[C@@H]1CSSC[C@H](NC(=O)[C@H](CC(=O)O)NC(=O)[C@H](CC(=O)O)NC(=O)[C@@H](NC(=O)[C@H](C)NC(=O)[C@H](CCCCN)NC(=O)[C@H](CCCNC(=N)N)NC(=O)[C@H](Cc2ccccc2)NC(=O)[C@H](CCC(N)=O)NC(=O)[C@@H]2CSSC[C@H](N)C(=O)N[C@@H](CC(=O)O)C(=O)N[C@@H](C)C(=O)N[C@@H]([C@@H](C)O)C(=O)N2)[C@@H](C)CC)C(=O)N[C@@H](CC(=O)O)C(=O)N[C@@H](CCCCN)C(=O)N[C@@H](CCC(N)=O)C(=O)N[C@@H](C)C(=O)N[C@@H](Cc2c[nH]cn2)C(=O)N[C@@H](Cc2c[nH]cn2)C(=O)N[C@@H](CO)C(=O)N[C@@H](CO)C(=O)N[C@@H](Cc2ccccc2)C(=O)N[C@@H](CCCCN)C(=O)N[C@@H](CCC(=O)O)C(=O)N1)C(=O)N[C@@H](CCCCN)C(=O)N[C@@H](CCC(N)=O)C(=O)N[C@@H](CCCCN)C(=O)N[C@@H](CCCCN)C(=O)N[C@@H](CCCCN)C(=O)N[C@@H](CCC(=O)O)C(=O)N[C@@H](Cc1ccccc1)C(=O)N[C@@H](CCCCN)C(N)=O [compound 219] | 7.00 to 9.00 | 7.00 to 9.00

— patent US20210395313A1, “PEPTIDE PAC1 ANTAGONISTS” (AMGEN INC., priority 2017, published 2021)
